The conditions of series [1]: ErbB2 (Her-2) positive breast cancers; worsened by anthracyclines; cited from earlier work.
A further series deals with NRG-1β. The series is described as follows: Serial plasma NRG-1β by indirect sandwich ELISA in Her-2+ breast cancer patients receiving doxorubicin and trastuzumab. Type of series: in vivo, human. Conditions: three months of Herceptin exposure. As to the method: NRG-1β is measured from frozen, previously unthawed serum or plasma samples that had been stored at −80° C. until time of assay. An indirect sandwich enzyme-linked immunosorbent assay (ELISA) was used (NRG1-β1 Duoset ELISA development system from R&D Systems, Minneapolis, Minn.). Assay technology was adapted for human samples, and all measurements were performed at Vanderbilt University. Serum or plasma was applied to plates that had been coated with mouse anti-human NRG1-β1 capture antibody. Following incubation, a biotinylated goat anti-human NRG1-β1 detection antibody was added to each well, and a streptavidin-HRP system was used for detection. The monoclonal antibody used in this assay detects a biologically active NRG-1β peptide fragment that is highly expressed in the cardiovascular system, and that activates the ErbB receptor and downstream signaling pathways in ventricular myocytes in vitro. Extensive validation was performed and there was no cross-reactivity with NRG-1α isoform or epidermal growth factor.
Breast cancer patients receiving doxorubicin followed by trastuzumab were prospectively recruited. […]
NRG-1β plasma level was measured serially every 3 months during chemotherapy treatment. NRG-1β was measured via indirect sandwich ELISA that detects a biologically active peptide sequence highly expressed in cardiac system (CV 5.6-13%).

For trastuzumab [Herceptin], the “rate of heart failure and cardiac dysfunction” value in series [1] is 4-27%. Further, the “change in NRG-1β” value in the series on NRG-1β was “not associated with a statistically significant change”.

Values taken from patent US8962257B2, “Methods for diagnosing heart failure and other cardiac diseases” (The Trustees of the University of Pennsylvania, priority 2010, dated 2015).
